{"source": "patent US20100189688A1", "about": "“Dose forms comprising VX-950 and their dosage regimen” (priority 2007, published 2010)", "test_system": "genotype 1 hepatitis C", "assay": "Phase 1b 14-day study of VX-950, VX-950/Peg-IFN-2a or Peg-IFN-2a followed by Peg-IFN-2a/RBV: HCV RNA and SVR (Example 9)", "conditions": "group sizes N 7 / 8 / 4", "data": [{"substance": "Peg-IFN-2a: Peginterferon alfa-2a", "values": [{"measurement": "Undetectable HCV RNA at 24-week off study peg-IFN-2a/RBV treatment", "result": 3, "unit": "N"}]}]}
